Target: vanilloid receptor 1 (VR1/TRPV1) of rats (Rattus norvegicus, UniProt O35433)
Assay: Functional analysis on the vanilloid receptor 1 (FLIPR Ca2+ influx assay in rat dorsal root ganglia cells)
Settings: for VR1 (rat) (% inhibition in comparison with 10 μM CP): then 100 nM capsaicin after 5 min, relative to maximum inhibition with 10 μM capsaicin; for inhibition at 10 µM: read-out: VR1 (rat) (% inhibition in comparison with 10 μM CP); for activation at 10 µM: read-out: VR1 (rat) (% stimulation in comparison with 10 μM CP)

Sequences of proteins named here, by UniProt entry; tags and fusion partners are left off.
UniProt O35433, whole entry: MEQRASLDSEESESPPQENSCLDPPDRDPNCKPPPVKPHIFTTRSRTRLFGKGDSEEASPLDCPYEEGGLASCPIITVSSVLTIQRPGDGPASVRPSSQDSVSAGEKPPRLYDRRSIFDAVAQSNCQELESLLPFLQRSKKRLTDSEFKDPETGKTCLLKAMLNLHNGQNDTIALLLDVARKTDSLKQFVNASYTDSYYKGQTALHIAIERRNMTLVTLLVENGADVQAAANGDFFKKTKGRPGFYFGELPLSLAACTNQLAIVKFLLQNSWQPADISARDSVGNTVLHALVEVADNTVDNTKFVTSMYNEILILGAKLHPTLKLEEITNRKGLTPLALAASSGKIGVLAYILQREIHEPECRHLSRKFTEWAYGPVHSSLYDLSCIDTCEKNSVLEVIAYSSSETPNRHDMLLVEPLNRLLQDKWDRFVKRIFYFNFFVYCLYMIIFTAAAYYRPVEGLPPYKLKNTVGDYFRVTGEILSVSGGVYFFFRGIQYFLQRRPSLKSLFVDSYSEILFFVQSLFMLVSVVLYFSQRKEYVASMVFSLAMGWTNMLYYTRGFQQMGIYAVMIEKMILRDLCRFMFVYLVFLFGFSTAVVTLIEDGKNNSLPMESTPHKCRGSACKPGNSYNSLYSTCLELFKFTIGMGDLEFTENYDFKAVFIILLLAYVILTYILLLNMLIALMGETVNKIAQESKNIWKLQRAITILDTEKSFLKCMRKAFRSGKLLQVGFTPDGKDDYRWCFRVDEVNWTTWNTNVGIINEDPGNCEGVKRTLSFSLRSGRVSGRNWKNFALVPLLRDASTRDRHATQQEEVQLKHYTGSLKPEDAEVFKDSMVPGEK

| Compound | VR1 (rat) (% inhibition in comparison with 10 μM CP) (compound 10 μM, rat DRG cells) [%] | VR1 (rat) (% stimulation in comparison with 10 μM CP) (compound 10 μM, rat DRG cells, Ca2+ signal relative to 10 μM capsaicin (CP)) [%] | inhibition at 10 µM [%] | activation at 10 µM [%] |
| --- | --- | --- | --- | --- |
| CC(CNC(=O)c1c(N(C)C(=O)c2cccc3ccccc23)nc2n1CCCC2)c1ccc(Cl)cc1 (stereo not drawn) [Example 163, 2-[methyl-(naphthalene-1-carbonyl)-amino]-5,6,7,8-tetrahydro-imidazo[1,2-a]pyridine-3-carboxylic acid [2-(4-chlor-phenyl)-propyl]-amide] | 53 | 83 | – | – |
| CCCCN(C(=O)c1cccc(Cl)c1)c1nc2n(c1C(=O)NCc1ccccc1OCC)CCCC2 [Example 43, 2-[butyl-(3-chloro-benzoyl)-amino]-5,6,7,8-tetrahydro-imidazo[1,2-a]pyridine-3-carboxylic acid 2-ethoxy-benzylamide] | – | – | 104 | 59 |
| CCCCN(C(=O)c1cccc(Cl)c1)c1nc2n(c1C(=O)NC(C)CCc1ccccc1)CCCC2 (stereo not drawn) [Example 145, 2-[butyl-(3-chloro-benzoyl)-amino]-5,6,7,8-tetrahydro-imidazo[1,2-a]pyridine-3-carboxylic acid (1-methyl-3-phenyl-propyl)-amide] | – | – | 82 | 30 |
| COc1cccc(CNC(=O)c2c(N(C)C(=O)c3cccc4ccccc34)nc3n2CCCC3)c1 [Example 73, 2-[methyl-(naphthalene-1-carbonyl)-amino]-5,6,7,8-tetrahydro-imidazo[1,2-a]pyridine-3-carboxylic acid 3-methoxy-benzylamide] | – | – | 40 | – |
| CC(NC(=O)c1c(N(C)C(=O)c2cccc(Cl)c2)nc2n1CCCC2)C12CC3CC(CC(C3)C1)C2 (stereo not drawn) [Example 165, 2-[(3-chloro-benzoyl)-methyl-amino]-5,6,7,8-tetrahydro-imidazo[1,2-a]pyridine-3-carboxylic acid (1-adamantan-1-yl-ethyl)-amide] | – | – | 47 | – |
| CCCCN(C(=O)c1cccc(Cl)c1)c1nc2n(c1C(=O)NC1CCCCC1)CCCC2 [Example 120, 2-[butyl-(3-chloro-benzoyl)-amino]-5,6,7,8-tetrahydro-imidazo[1,2-a]pyridine-3-carboxylic acid cyclohexylamide] | – | – | 97 | 67 |
| CC(NC(=O)c1c(N(C)C(=O)c2cccc3ccccc23)nc2n1CCCC2)C1CCCCC1 (stereo not drawn) [Example 105, 2-[methyl-(naphthalene-1-carbonyl)-amino]-5,6,7,8-tetrahydro-imidazo[1,2-a]pyridine-3-carboxylic acid (1-cyclohexyl-ethyl)-amide] | – | – | 32 | – |
| CCCCN(C(=O)c1ccc(F)c(F)c1)c1nc2n(c1C(=O)NC(C)c1ccc(F)cc1)CCCC2 (stereo not drawn) [Example 118, 2-[butyl-(3,4-difluoro-benzoyl)-amino]-5,6,7,8-tetrahydro-imidazo[1,2-a]pyridine-3-carboxylic acid [1-(4-fluoro-phenyl)-ethyl]-amide] | – | – | 66 | – |
| CCCCN(C(=O)c1cccc(Cl)c1)c1nc2n(c1C(=O)NC(C)C(C)C)CCCC2 (stereo not drawn) [Example 19, 2-[butyl-(3-chloro-benzoyl)-amino]-5,6,7,8-tetrahydro-imidazo[1,2-a]pyridine-3-carboxylic acid (1,2-dimethyl-propyl)-amide] | – | – | 87 | 49 |
| CCCCN(C(=O)c1cccc(Cl)c1)c1nc2n(c1C(=O)NC(COC)Cc1ccccc1)CCCC2 (stereo not drawn) [Example 86, 2-[butyl-(3-chloro-benzoyl)-amino]-5,6,7,8-tetrahydro-imidazo[1,2-a]pyridine-3-carboxylic acid (1-methoxymethyl-2-phenyl-ethyl)-amide] | – | – | 114 | 34 |
| CN(C(=O)c1cccc(Cl)c1)c1nc2n(c1C(=O)NC(C(=O)OC(C)(C)C)C(C)(C)C)CCCC2 (stereo not drawn) [Example 104, 2-({2-[(3-chloro-benzoyl)-methyl-amino]-5,6,7,8-tetrahydro-imidazo[1,2-a]pyridine-3-carbonyl}-amino)-3,3-dimethyl-butyric acid tert-butyl ester] | – | – | 45 | – |
| CCCCN(C(=O)c1cccc(Cl)c1)c1nc2n(c1C(=O)NC1CCc3ccccc31)CCCC2 (stereo not drawn) [Example 52, 2-[butyl-(3-chloro-benzoyl)-amino]-5,6,7,8-tetrahydro-imidazo[1,2-a]pyridine-3-carboxylic acid indan-1-ylamide] | – | – | 101 | 53 |
| CCCCN(C(=O)c1cccc(Cl)c1)c1nc2n(c1C(=O)N1CCC(N3CCCCC3)CC1)CCCC2 [Example 109, N-[3-([1,4′]bipiperidinyl-1′-carbonyl)-5,6,7,8-tetrahydro-imidazo[1,2-a]pyridin-2-yl]-N-butyl-3-chloro-benzamide] | – | – | 90 | 68 |
| CCCCN(C(=O)c1ccc(F)c(F)c1)c1nc2n(c1C(=O)NC1CCC(C)CC1)CCCC2 (stereo not drawn) [Example 16, 2-[butyl-(3,4-difluoro-benzoyl)-amino]-5,6,7,8-tetrahydro-imidazo[1,2-a]pyridine-3-carboxylic acid (4-methyl-cyclohexyl)-amide] | – | – | 100 | 90 |
| CCCCN(C(=O)c1cccc(Cl)c1)c1nc2n(c1C(=O)NCc1cccc(C)c1C)CCCC2 [Example 133, 2-[butyl-(3-chloro-benzoyl)-amino]-5,6,7,8-tetrahydro-imidazo[1,2-a]pyridine-3-carboxylic acid 2,3-dimethyl-benzylamide] | – | – | 64 | – |
| CCCCN(C(=O)c1cccc(Cl)c1)c1nc2n(c1C(=O)NCc1cccc(C)c1)CCCC2 [Example 113, 2-[butyl-(3-chloro-benzoyl)-amino]-5,6,7,8-tetrahydro-imidazo[1,2-a]pyridine-3-carboxylic acid 3-methyl-benzylamide] | – | – | 89 | 39 |
| CCCCN(C(=O)c1cccc(Cl)c1)c1nc2n(c1C(=O)N[C@H](CC)c1ccccc1)CCCC2 [Example 132, 2-[butyl-(3-chloro-benzoyl)-amino]-5,6,7,8-tetrahydro-imidazo[1,2-a]pyridine-3-carboxylic acid (1-phenyl-propyl)-amide] | – | – | 99 | 67 |
| CCCCN(C(=O)c1cccc(Cl)c1)c1nc2n(c1C(=O)NCc1ccccc1C(F)(F)F)CCCC2 [Example 51, 2-[butyl-(3-chloro-benzoyl)-amino]-5,6,7,8-tetrahydro-imidazo[1,2-a]pyridine-3-carboxylic acid 2-trifluoromethyl-benzylamide] | – | – | 96 | 47 |
| CCCCN(C(=O)c1cccc(Cl)c1)c1nc2n(c1C(=O)NCc1cccs1)CCCC2 [Example 149, 2-[butyl-(3-chloro-benzoyl)-amino]-5,6,7,8-tetrahydro-imidazo[1,2-a]pyridine-3-carboxylic acid (thiophen-2-ylmethyl)-amide] | – | – | 72 | 43 |
| CN(C(=O)c1cccc(Cl)c1)c1nc2n(c1C(=O)NC1CCCCC1OCc1ccccc1)CCCC2 (stereo not drawn) [Example 67, 2-[(3-chloro-benzoyl)-methyl-amino]-5,6,7,8-tetrahydro-imidazo[1,2-a]pyridine-3-carboxylic acid (2-benzyloxy-cyclohexyl)-amide] | – | – | 52 | – |
| CN(C(=O)Cc1ccccc1)c1nc2n(c1C(=O)NCCc1cccc(C(F)(F)F)c1)CCCC2 [Example 156, 2-(methyl-phenylacetyl-amino)-5,6,7,8-tetrahydro-imidazo[1,2-a]pyridine-3-carboxylic acid [2-(3-trifluoromethyl-phenyl)-ethyl]-amide] | – | – | 34 | – |
| CCCCN(C(=O)c1ccc(F)c(F)c1)c1nc2n(c1C(=O)NCc1c(C)cccc1Cl)CCCC2 [Example 102, 2-[butyl-(3,4-difluoro-benzoyl)-amino]-5,6,7,8-tetrahydro-imidazo[1,2-a]pyridine-3-carboxylic acid 2-chloro-6-methyl-benzylamide] | – | – | 97 | 66 |
| CC(C)CC(NC(=O)c1c(N(C)C(=O)c2cccc3ccccc23)nc2n1CCCC2)C(=O)OCc1ccccc1 (stereo not drawn) [Example 57, 4-methyl-2-({2-[methyl-(naphthalene-1-carbonyl)-amino]-5,6,7,8-tetrahydro-imidazo[1,2-a]pyridine-3-carbonyl}-amino)-pentanoic acid benzyl ester] | – | – | 103 | 40 |
| CCCCN(C(=O)c1cccc(Cl)c1)c1nc2n(c1C(=O)NCCSCc1c(Cl)cccc1Cl)CCCC2 [Example 95, 2-[butyl-(3-chloro-benzoyl)-amino]-5,6,7,8-tetrahydro-imidazo[1,2-a]pyridine-3-carboxylic acid [2-(2,6-dichlor-benzylsulphanyl)-ethyl]-amide] | 52 | – | – | – |
| CCCCN(C(=O)c1ccc(F)c(F)c1)c1nc2n(c1C(=O)NC1CCc3ccccc31)CCCC2 (stereo not drawn) [Example 12, 2-[butyl-(3,4-difluoro-benzoyl)-amino]-5,6,7,8-tetrahydro-imidazo[1,2-a]pyridine-3-carboxylic acid indan-1-ylamide] | – | – | 73 | 48 |
| CCCCN(C(=O)c1cccc(Cl)c1)c1nc2n(c1C(=O)NCCc1c[nH]c3c(C)cccc13)CCCC2 [Example 69, 2-[butyl-(3-chloro-benzoyl)-amino]-5,6,7,8-tetrahydro-imidazo[1,2-a]pyridine-3-carboxylic acid [2-(7-methyl-1H-indol-3-yl)-ethyl]-amide] | – | – | 43 | – |
| CN(C(=O)c1cccc(Cl)c1)c1nc2n(c1C(=O)NCCC(c1ccccc1)c1ccccc1)CCCC2 [Example 128, 2-[(3-chloro-benzoyl)-methyl-amino]-5,6,7,8-tetrahydro-imidazo[1,2-a]pyridine-3-carboxylic acid (3,3-diphenyl-propyl)-amide] | – | – | 39 | – |
| CCCCN(C(=O)c1ccc(F)c(F)c1)c1nc2n(c1C(=O)NCCC(c1ccccc1)c1ccccc1)CCCC2 [Example 180, 2-[butyl-(3,4-difluoro-benzoyl)-amino]-5,6,7,8-tetrahydro-imidazo[1,2-a]pyridine-3-carboxylic acid (3,3-diphenyl-propyl)-amide] | – | – | 102 | 56 |
